# AlphaSeq binding of Ab-14 light chain variants to a spike HR2 peptide

From the AlphaSeq antibody data of Engelhart et al. 2022 (doi:10.1038/s41597-022-01779-4), copy in the FLAb collection.

Binding partner: SARS-CoV-2 spike HR2 peptide, sequence PDVDLGDISGINAS.

Each scFv is VH, a (GGGGS)3 linker, VL, as in the parent Ab-14, and differs from it in the CDRs of the light chain only.
VH: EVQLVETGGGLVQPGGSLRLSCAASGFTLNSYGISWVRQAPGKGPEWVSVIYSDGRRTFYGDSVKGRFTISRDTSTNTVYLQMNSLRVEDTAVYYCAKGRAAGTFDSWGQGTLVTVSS
VL: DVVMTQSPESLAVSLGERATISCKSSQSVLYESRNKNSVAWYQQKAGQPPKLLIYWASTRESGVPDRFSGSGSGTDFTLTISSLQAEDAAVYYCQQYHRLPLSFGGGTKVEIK

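Phage display of a naive human antibody library on the peptide gave the parent. In library AAYL50, one, two or three CDR residues were substituted; doubles and triples were drawn at random. In AlphaSeq, yeast of one mating type display the scFv and yeast of the other type display the target. After mating in shaken culture at 30 °C for 16 h, diploids were selected and their barcode pairs sequenced. Scores were corrected for input abundance and mapped to Kd with protein pairs of known affinity run in the same pool. The assay was run in three technical replicates.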

The parent's light chain CDRs are KSSQSVLYESRNKNSVA, WASTRES, QQYHRLPLS; each variant's own CDRs replace them letter for letter.
Every variant below is changed at R99 of the VL (sequential numbering).
Each Kd is an estimate from the mating assay, the geometric mean of the replicates in which the pair was seen; lower is stronger.
Where no diploid with the target was found in any replicate, the entry reads "nd": below detection, most likely a poor binder, though not proof of it.

The variant KSSQSVLYESRNQNSVA / WASTRES / QQYHFLDLS gave nd (0 of 3 replicates; controls 0 of 9). The variant KSSQSVLYESRKKNSVA / WASTRES / QQYHVLQLS gave 22 µM (2 of 3 replicates; controls 5 of 9). With KSCQSVLYKSRNKNSVA / WASTRES / QQYHQLPLS the result was 5.0 µM (3 of 3 replicates; controls 7 of 9). The variant KSSQSVYYESRNKNSVA / WASTRES / QQYHSLCLS showed 32 nM (3 of 3 replicates; controls 1 of 9). With KSSQFPLYESRNKNSVA / WASTRES / QQYHFLPLS the result was 200 nM (3 of 3 replicates; controls 1 of 9). The variant KSSQSVLYESRNKNSVA / WASTLES / QQYHILPLY gave 880 µM (1 of 3 replicates; controls 0 of 9). For KSFQSVLYESRNKNSVA / WASTREN / QQYHHLPLS, the assay gave 23 nM (3 of 3 replicates; controls 1 of 9). With KSEQSVLYESRNKNSVA / WASTRES / QQYDDLPLS the result was nd (0 of 3 replicates; controls 1 of 9).

The variant KSSQSVLYESRNKNQVA / TASTRES / QQYHNLPLS gave nd (0 of 3 replicates; controls 0 of 9). The variant KSSQSVSYESRNKNSVA / KASTRES / QQYHTLPLS showed 1.7 nM (3 of 3 replicates; controls 0 of 9). The variant KSSQSVLYESRNKNSVA / WASTRES / QQYWILKLS showed 180 µM (1 of 3 replicates; controls 1 of 9). With KSSQSVLYESRNKNSVA / PASTRES / QQYAQLPLS the result was 88 nM (1 of 3 replicates; controls 1 of 9). The variant KSSQSVLKESRNKNSVA / WASTRES / QQYHPLPLS showed 23 nM (3 of 3 replicates; controls 1 of 9). For KSSQSVAYESRNKNSVA / WASTRES / QQYHVLPLS, the assay gave nd (0 of 3 replicates; controls 0 of 9). The variant KSSQSVLYESWNKNSVA / WASTQES / QQYHALPLS showed 230 nM (1 of 3 replicates; controls 2 of 9). For KSSQSVLYESRNKNSVA / WASTRNS / QQYHWLPVS, the assay gave nd (0 of 3 replicates; controls 0 of 9).

The variant KFSQSVLYESRNKNSVR / WASTRES / QQYHLLPLS showed 160 nM (1 of 3 replicates; controls 1 of 9). The variant KSSQSVLYESRIKNSRA / WASTRES / QQYHFLPLS gave nd (0 of 3 replicates; controls 0 of 9). The variant KSSQSVLYESRNKQSVA / WASTREN / QQYHQLPLS gave 27 nM (3 of 3 replicates; controls 0 of 9). For KSSQSVLYESRHKNSVA / WASTRES / QCYHELPLS, the assay gave 13 nM (3 of 3 replicates; controls 0 of 9). The variant KSSQSVLYESRNKNSVA / WESTRES / QSYHNLPLS showed 1.2 µM (1 of 3 replicates; controls 1 of 9). The variant KSSQSVLYESRNVNAVA / WASTRES / QQYHNLPLS gave 42 nM (3 of 3 replicates; controls 0 of 9). With KSSQSVLYESRNKNSVA / GASTRES / QIYHCLPLS the result was 150 µM (1 of 3 replicates; controls 3 of 9). The variant DSSQSVLYESRNKNSVA / WASTRES / QQYHLLKLS gave 1.4 µM (3 of 3 replicates; controls 4 of 9).

The variant KSSQSVLYESRNKNSVP / VASTRES / QQYHILPLS gave 3.0 µM (1 of 3 replicates; controls 0 of 9). With KSSQSVLYESRNKNSVH / WASTRES / QQYHMLPLH the result was 59 µM (2 of 3 replicates; controls 9 of 9). The variant KSSTSVLYESRNKTSVA / WASTRES / QQYHFLPLS gave 1.3 µM (3 of 3 replicates; controls 1 of 9). The variant KSSQSVLYESRNKNSVA / WASLRES / QQYHWLPWS gave 920 nM (3 of 3 replicates; controls 4 of 9). The variant KSSQSVLYESRNKNSVA / WKSTCES / QQYHALPLS showed 270 nM (1 of 3 replicates; controls 0 of 9). The variant KSSQSVLYHSRNKNSVA / WASTRES / VQYHELPLS showed 550 µM (1 of 3 replicates; controls 5 of 9). The variant KSSQSCLYESRNKNSVA / WASTRES / QQYETLPLS gave 68 nM (3 of 3 replicates; controls 4 of 9). For PSSQSVLYESRNKNSVA / WASTRES / QQFHGLPLS, the assay gave 15 µM (3 of 3 replicates; controls 4 of 9).

The variant WSSQSVLYESRNKNSVA / WASTRES / QNYHPLPLS gave nd (0 of 3 replicates; controls 0 of 9). The variant KSSQSVLKESRNKNSVA / WASTPES / QQYHVLPLS gave 5.1 µM (2 of 3 replicates; controls 1 of 9). The variant FSSQSVLYESRNKNSVA / WAFTRES / QQYHGLPLS showed nd (0 of 3 replicates; controls 0 of 9). The variant KSRQSVLYESRNKNSVA / WASTRES / QQYHILPNS showed nd (0 of 3 replicates; controls 2 of 9). The variant KSSQSVLYESRNKNSVA / GASTRES / QQYHCLPLS showed 3.5 nM (3 of 3 replicates; controls 3 of 9).

A selection of 5 entries from above:

Variant KSSQSVLYESRNKNSVA / WASLRES / QQYHWLPWS gave 920 nM (3 of 3 replicates; controls 4 of 9).
Variant KSSQSVLYESRNKNSVH / WASTRES / QQYHMLPLH gave 59 µM (2 of 3 replicates; controls 9 of 9).
Variant KSEQSVLYESRNKNSVA / WASTRES / QQYDDLPLS gave nd (0 of 3 replicates; controls 1 of 9).
Variant FSSQSVLYESRNKNSVA / WAFTRES / QQYHGLPLS gave nd (0 of 3 replicates; controls 0 of 9).
Variant KSCQSVLYKSRNKNSVA / WASTRES / QQYHQLPLS gave 5.0 µM (3 of 3 replicates; controls 7 of 9).

As a blank, each scFv also met three strains without target: over library AAYL50, 18% of these pairings were detected, typically at 15 µM and seldom below 970 nM. For each scFv, signals with the empty controls are counted beside the result.
For reference, the parent read 4.4 nM as the reference entry and 48 nM as a member of this library.